Values of other authors in PMC12520553.

Tests used:
[1] = molecular target: RAGE V domain (Homo sapiens) (UniProt Q15109)
[2] = molecular target: RAGE V domain (Homo sapiens) (UniProt Q15109); remark: listed apart in the source

Row | Substance | Kd [1] | Kd [2]
1 | S100A6 (from UniProt P06703) | 3000 nM | 
2 | soluble Amyloid-beta (from UniProt P05067) |  | 52.2 nM

Where two headings read alike, the source gives them in different places.
